Reference: patent US9603854B2, “Indolizine compounds, a process for their preparation and pharmaceutical compositions containing them” (LES LABORATOIRES SERVIER, priority 2012, dated 2017)
Counter-ions that a name gives are not always drawn.

Protein sequences, listed by entry. Tags and fused reporters are not part of them.
UniProt P10415, whole entry: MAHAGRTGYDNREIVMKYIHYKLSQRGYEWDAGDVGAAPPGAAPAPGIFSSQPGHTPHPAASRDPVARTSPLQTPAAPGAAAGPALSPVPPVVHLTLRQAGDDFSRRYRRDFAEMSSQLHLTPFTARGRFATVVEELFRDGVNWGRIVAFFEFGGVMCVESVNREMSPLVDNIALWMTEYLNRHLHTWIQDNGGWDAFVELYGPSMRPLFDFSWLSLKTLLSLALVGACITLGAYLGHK

Molecular target: Bcl-2 protein (Homo sapiens (Human), UniProt P10415)
Assay: Inhibition of Bcl-2 by the fluorescence polarisation technique
Type: binding
Conditions: Bcl-2 inhibition, fluorescence polarisation test; read-out: IC50 (nM) Bcl-2 FP
Method: The fluorescence polarisation tests were carried out on microplates (384 wells). […] After incubation for 2 hours, the fluorescence polarisation is measured.

SMILES: Cn1ccc2ccc(N(C(=O)c3cc(-c4cc(Cl)ccc4C(=O)N4Cc5ccccc5C[C@H]4CN4CCOCC4)n4c3CCCCC4)c3ccc(O)cc3)cc21 [Example 83, 3-{5-Chloro-2-[((3S)-3-(4-morpholinylmethyl)-3,4-dihydro-2(1H)-isoquinolinyl)carhonyl]phenyl}-N-(4-hydroxyphenyl)-N-(1-methyl-1H-indol-6-yl)-6,7,8,9-tetrahydro-5H-pyrrolo[1,2-a]azepine-1-carboxamide hydrochloride]
- IC50: 18 nM
